Laboratory results: patent publication US12297453B2, “Generation of norepinephrine neurons from human stem cells” (Wisconsin Alumni Research Foundation, priority 2020, dated 2025)

Test system: hindbrain R1 neuroepithelial cells
Assay: NE progenitor fate specification of hindbrain R1 neuroepithelial cells (qPCR of MASH1, PHOX2B, PHOX2A and regional markers)
Format: cell-based, human
Details: 10 ng/ml, day 6 to day 12
From the text: On day 5, change the medium without SB431542. […] Cells were feed daily.
Development of NE neurons in LC depends on expression of Mash1, Phox2b and Phox2a in a stage dependent manner. See Pattyn et al., 2000, Mol Cell Neurosci, 15:235-243; Morin et al., 1997, Neuron, 18:411-423; Hirsch et al., 1998, Development, 125:599-608. Mash1 is expressed in the proliferative progenitor cells, while Phox2b and Phox2a are expressed when cells became postmitotic precursors and neurons. Pattyn et al., 2000. […] In zebrafish, FGF8 and BMPs are essential for NE differentiation 9 (FIG. 2A). Thus, the effects of FGF8 and BMPs were tested in the second week of differentiation (FIG. 2B).
MASH1 reached a maximum expression level when 25 ng/ml of Activin A was used while PHOX2B and PHOX2A reached their maximum level when Activin A concentration reached 250 ng/ml (FIG. 2E).
In further experiments it was determined whether the unique role of Activin A on human NE neuron specification was regional identity dependent. Neuroepithelial cells ranging from anterior forebrain to posterior hindbrain were obtained using different doses of CHIR99021, and then these neuroepithelial cells were treated with 25 ng/ml Activin A for 6 days. […]

B1: BMP2: bone morphogenetic protein (protein, UniProt P12643 283-396, looked up)
Bone morphogenetic protein 2: QAKHKQRKRLKSSCKRHPLYVDFSDVGWNDWIVAPPGYHAFYCHGECPFPLADHLNSTNHAIVQTLVNSVNSKIPKACCVPTELSAISMLYLDENEKVVLKNYQDMVVEGCGCR
B1 was tested, and the “effect on expression of MASH1, PHOX2B, and PHOX2A” value was “no obvious effects”.
